experiment: soluble on expression in E. coli; label from the status in PepcDB or PDB records

Soluble on expression in E. coli, soluble:
SPILGYWKIKGLVQPTRLLLEYLEEKYEEHLYERDEGDKWRNKKFELGLEFPNLPYYIDGDVKLTQSMAIIRYIADKHNMLGGCPKERAEISMLEGAVLDIRYGVSRIAYSKDFETLKVDFLSKLPEMLKMFEDRLCHKTYLNGDHVTHPDFMLYDALDVVLYMDPMCLDAFPKLVCFKKRIEAIPQIDKYLKSSKYIAWPLQGWQATFGGGDHPPKSDLVPRGSRRASVGSRMHYPGAFTYSPTPVTSGIGIGMSAMGSATRYHTYLPPPYPGEFIVID
ASSRWFFTREQLENTPSRRCGVEADKELSCRQQAANLIQEMGQRLNVSQLTINTAIVYMHRFYMHHSFTKFNKNIISSTALFLAAKVEEQARKLEHVIKVAHACLHPLEPLLDTKCDAYLQQTRELVILETIMLQTLGFEITIEHPHTDVVKCTQLVRASKDLAQTSYFMATNSLHLTTFCLQYKPTVIACVCIHLACKWSNWEIPVSTDGKHWWEYVDPTVTLELLDELTHEFLQILEKTPNRLKKIRNWRANQAA
SAAPSDGFKPRERSGGEQAQDWDALPPKRPRLGAGNKIGGRRLIVVLEGASLETVKVGKTYELLNCDKHKSILLKNGRDPGEARPDITHQSLLMLMDSPLNRAGLLQVYIHTQKNVLIEVNPQTRIPRTFDRFCGLMVQLLHKLSVRAADGPQKLLKVIKNPVSDHFPVGCMKVGTSFSIPVVSDVRELVPSSDPIVFVVGAFAHGKVSVEYTEKMVSISNYPLSAALTCAKLTTAFEEVWGVI
SHLKSKKGQSTSRHKKLMFKTE
MSVELEEALPVTTAEGMAKKVTKAGGSAALSPSKKRKNSKKKNQPGKYSQLVVETIRRLGERNGSSLAKIYTEAKKVPWFDQQNGRTYLKYSIKALVQNDTLLQVKGTGANGSFKLNRKKLEGGGERRGAPAAATAPAPTAHKAKKAAPGAAGSRRADKKPARGQKPEQRSHKKGAGAKKDKGGKAKKTAAAGGKKVKKAAKPSVPKVPKGRK
MGLLTILKKMKQKERELRLLMLGLDNAGKTTILKKFNGEDIDTISPTLGFNIKTLEHRGFKLNIWDVGGQKSLRSYWRNYFESTDGLIWVVDSADRQRMQDCQRELQSLLVEERLAGATLLIFANKQDLPGALSSNAIREVLELDSIRSHHWCIQGCSAVTGENLLPGIDWLLDDISSRIFTADLEHHHHHH
GVYHREARSGKYKLTYAEAKAVCEFEGGHLATYKQLEAARKIGFHVCAAGWMAKGRVGYPIVKPGPNCGFGKTGIIDYGIRLNRSERWDAYCYNPHAK

From the DeepSol protein solubility set
